# Assay results taken from PubChem BioAssay AID434962 (The Scripps Research Institute Molecular Screening Center, 2010).
# The chains behind the UniProt entries cited, without tags or fusion partners.
# UniProt P14735, whole entry: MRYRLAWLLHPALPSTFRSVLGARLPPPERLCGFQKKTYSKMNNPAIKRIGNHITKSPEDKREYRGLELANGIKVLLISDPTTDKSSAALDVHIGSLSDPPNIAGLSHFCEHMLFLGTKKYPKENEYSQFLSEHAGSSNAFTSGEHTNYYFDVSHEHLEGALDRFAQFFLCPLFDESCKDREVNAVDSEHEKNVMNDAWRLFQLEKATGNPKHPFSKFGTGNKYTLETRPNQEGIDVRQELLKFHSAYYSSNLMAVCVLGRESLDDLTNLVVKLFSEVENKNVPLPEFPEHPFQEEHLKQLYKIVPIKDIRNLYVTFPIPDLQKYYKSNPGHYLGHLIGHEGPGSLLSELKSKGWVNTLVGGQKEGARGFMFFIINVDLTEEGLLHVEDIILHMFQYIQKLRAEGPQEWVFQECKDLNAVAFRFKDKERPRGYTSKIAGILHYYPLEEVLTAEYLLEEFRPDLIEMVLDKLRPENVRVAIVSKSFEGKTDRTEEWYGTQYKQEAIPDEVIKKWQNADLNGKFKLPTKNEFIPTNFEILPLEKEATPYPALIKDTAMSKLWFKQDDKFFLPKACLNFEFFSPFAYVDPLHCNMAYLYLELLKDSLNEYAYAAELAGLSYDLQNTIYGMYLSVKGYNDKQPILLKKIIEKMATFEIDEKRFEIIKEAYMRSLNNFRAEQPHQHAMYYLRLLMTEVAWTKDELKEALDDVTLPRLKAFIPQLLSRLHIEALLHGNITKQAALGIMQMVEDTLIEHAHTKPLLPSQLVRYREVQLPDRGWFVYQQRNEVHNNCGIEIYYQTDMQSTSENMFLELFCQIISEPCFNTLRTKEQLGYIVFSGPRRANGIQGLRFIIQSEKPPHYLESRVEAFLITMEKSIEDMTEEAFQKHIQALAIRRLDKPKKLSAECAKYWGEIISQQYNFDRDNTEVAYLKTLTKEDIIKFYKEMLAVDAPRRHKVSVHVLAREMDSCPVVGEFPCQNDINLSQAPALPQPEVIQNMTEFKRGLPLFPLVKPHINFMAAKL
# This is a selection; strong and weak results do not stand in their true shares. Some structures show a salt or complex split into parts, the way the source records it. Activity calls are given as the source filed them.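 How the source made its calls: active means percent inhibition above the average of all tested compounds plus 3 SD, set per screening campaign (cut at about 16% in these data); inactive means the rest.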
# Biological target: Insulin-degrading enzyme (Homo sapiens) (UniProt P14735)
# Assay: human IDE inhibitors in live cells, primary screen, fluorescence polarization, HEK cells, FAbetaB substrate (AID 434962);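 further: IDE supplied by intact live HEK cells; FP after avidin binding of uncleaved biotin substrate so inhibition keeps polarization high; 0% = DMSO wells and 100% = 60 µM reference IDE inhibitor Ii1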
# Details: FAbetaB cleavage, at 5.59 µM, active compounds read high
row,SMILES,inhibition
1,CCOP(C)(=S)SCC(=O)NC(C)(CC)C(=O)O (stereo unspecified),inactive: -0.14%
2,CP(=O)(Nc1ccc(SC(F)(F)F)cc1)Oc1ccc(F)cc1 (stereo unspecified),inactive: -5.03%
3,Cc1ccccc1NP(C)(=O)Nc1ccccc1C,inactive: 1.09%
4,CP(=O)(Nc1ccc2c(c1)OCCO2)Oc1ccccc1 (stereo unspecified),inactive: 4.58%
5,CN(C)CCOC(=O)C(O)(c1ccccc1)C1CCCCC1 (stereo unspecified),inactive: 4.5%
6,COc1ccc(NP(C)(=O)Oc2ccccc2OC)cc1 (stereo unspecified),inactive: 1.92%
7,COc1ccc(OP(C)(=O)Nc2cccc(Br)c2)cc1 (stereo unspecified),inactive: 8.59%
8,O=[N+]([O-])c1cc([N+](=O)[O-])c(NCC2CCS(=O)(=O)C2)c([N+](=O)[O-])c1 (stereo unspecified),inactive: 0.57%
9,CCOC(=O)c1ccc(NP(C)(=O)Oc2ccc(F)cc2)cc1 (stereo unspecified),inactive: 0.83%
10,COc1ccc(OP(C)(=O)Nc2ccc(SC(F)(F)F)cc2)cc1 (stereo unspecified),inactive: -0.01%
11,CP(=O)(Nc1ccccc1)Oc1ccc(F)cc1 (stereo unspecified),inactive: 0.04%
12,CCCCCOc1ccc(NP(C)(=O)Oc2ccc(Cl)cc2Cl)cc1 (stereo unspecified),inactive: 2.78%
13,O=[N+]([O-])c1cc([N+](=O)[O-])c(OC2CCCCC2O)c([N+](=O)[O-])c1 (stereo unspecified),inactive: -0.23%
14,CCN(CC)CCCOC(=O)C(O)(c1ccccc1)C1CCCCC1 (stereo unspecified),inactive: 3.2%
15,CP(=O)(Nc1ccccc1F)Oc1ccccc1 (stereo unspecified),inactive: 2.02%
16,CC(C)c1ccc(OP(C)(=O)Nc2ccc(SC(F)(F)F)cc2)cc1 (stereo unspecified),inactive: -1.49%
17,COc1ccc2c(c1O)-c1c(O)c(OC)cc3c1[C@H](C2)[N+](C)(C)CC3.O=[N+]([O-])c1cc([N+](=O)[O-])c([O-])c([N+](=O)[O-])c1[O-],inactive: 1.23%
18,O=C(OC1CN2CCC1CC2)c1ccc([N+](=O)[O-])cc1 (stereo unspecified),inactive: -0.99%
19,O=C(OCCN1CCN(CCOCc2ccccc2)CC1)C(O)(c1ccccc1)c1ccccc1,inactive: 3.42%
20,COc1ccc(OP(C)(=O)Nc2ccccn2)cc1 (stereo unspecified),inactive: -5.93%
21,CN(C)CCOC(=O)C(O)(c1ccccc1)C1CCCC1 (stereo unspecified),inactive: -0.28%

row,SMILES,inhibition
1,COc1ccccc1OP(C)(=O)Nc1ccc(Br)cc1 (stereo unspecified),inactive: 0.89%
2,CP(=O)(Nc1ccccn1)Oc1ccccc1 (stereo unspecified),inactive: -0.95%
3,COc1ccccc1OP(C)(=O)Nc1ccc(C)cc1C (stereo unspecified),inactive: -2.89%
4,CCc1ccc(OP(C)(=O)O)cc1,inactive: 0.06%
5,O=[N+]([O-])c1cc([N+](=O)[O-])c(Nc2ccccn2)c([N+](=O)[O-])c1,inactive: 3.38%
6,Cc1c(NP(C)(=O)Oc2ccc(C(C)C)cc2)c(=O)n(-c2ccccc2)n1C (stereo unspecified),inactive: -1.69%
7,COc1ccccc1OP(C)(=O)Nc1ccc(C)c(C)c1 (stereo unspecified),inactive: 0.58%
8,COc1ccc(OP(C)(=O)Nc2ccccc2Br)cc1 (stereo unspecified),inactive: 1.58%
9,Cc1cc(C)cc(OP(C)(=O)Nc2cccc(C(F)(F)F)c2)c1 (stereo unspecified),inactive: 0.33%
10,CP(=O)(OCCOc1ccccc1)OCCOc1ccccc1,inactive: 8.17%
11,CP(=O)(Nc1ccc(Cl)cc1Cl)Oc1ccccc1 (stereo unspecified),inactive: 0.96%
12,Cc1nc2ccc3ccccc3c2o1.O=[N+]([O-])c1cc([N+](=O)[O-])c(O)c([N+](=O)[O-])c1,inactive: 8.65%
13,CCOC(=O)c1ccc(NP(C)(=O)Oc2ccc(Cl)cc2)cc1 (stereo unspecified),inactive: 5.27%
14,CP(=O)(OC12CC3CC(CC(C3)C1)C2)OC12CC3CC(CC(C3)C1)C2,inactive: -1.43%
15,Nc1ccc2c(ccc3cccnc32)n1.O=[N+]([O-])c1cc([N+](=O)[O-])c(O)c([N+](=O)[O-])c1,inactive: 1.76%
16,COc1ccccc1OP(C)(=O)Nc1c(C)n(C)n(-c2ccccc2)c1=O (stereo unspecified),inactive: 5.52%
17,O=C(OCCCN1CCCC1)C(O)(c1ccccc1)C1CCCCC1 (stereo unspecified),inactive: 5.77%
18,CP(=O)(Oc1ccccc1)N1CCOC1=O (stereo unspecified),inactive: 4.78%
19,CCc1ccc(OP(C)(=O)Nc2cccnc2)cc1 (stereo unspecified),inactive: 1.9%
20,CCN(CC)CC(O)COC(=O)C(O)(c1ccccc1)C1CCCCC1 (stereo unspecified),inactive: 3.19%
21,COc1ccc(OP(C)(=O)Nc2ccc(Br)cc2)cc1 (stereo unspecified),inactive: 0.33%

row,SMILES,inhibition
1,CN(C)C(=O)c1c([N+](=O)[O-])cc([N+](=O)[O-])cc1[N+](=O)[O-],inactive: 7.49%
2,CC(C)(C)c1ccc(OP(C)(=O)O)cc1,inactive: -1.33%
3,COc1ccccc1OP(C)(=O)Nc1ccccc1Br (stereo unspecified),inactive: 3.72%
4,CP(=O)(Nc1ccc(Cl)cc1)Oc1ccc(F)cc1 (stereo unspecified),inactive: -0.31%
5,CCc1ccc(OP(C)(=O)N2CCN(c3ccc([N+](=O)[O-])cc3)CC2)cc1 (stereo unspecified),inactive: 2.76%
6,CP(=O)(NC(=O)Nc1ccccc1)Oc1ccccc1 (stereo unspecified),inactive: -1.41%
7,Cc1cc(C)cc(OP(C)(=O)Nc2ccc(SC(F)(F)F)cc2)c1 (stereo unspecified),inactive: -0.18%
8,CP(=O)(Nc1ccc(SC(F)(F)F)cc1)Oc1ccc(Cl)cc1 (stereo unspecified),inactive: 3.72%
9,Cc1cccc(C)c1OP(C)(=O)Nc1ccc(SC(F)(F)F)cc1 (stereo unspecified),inactive: 3.69%
10,CP(=O)(Oc1ccccc1)OC(c1ccccc1)C(F)(F)F (stereo unspecified),inactive: 9.97%
11,CP(=O)(Nc1ccccn1)Oc1ccc(Cl)cc1 (stereo unspecified),inactive: 1.27%
12,O=[N+]([O-])c1cc([N+](=O)[O-])c(O)c([N+](=O)[O-])c1.c1ccc(Oc2ccncc2)cc1,inactive: 8.08%
13,CCOC(=O)c1ccc(NP(C)(=O)Oc2ccc(OC)cc2)cc1 (stereo unspecified),inactive: -1.4%
14,CCOP(C)(=S)SCC(=O)NC(C)C(=O)O (stereo unspecified),inactive: 2.03%
15,CP(=O)(Nc1ccccc1Br)Oc1ccccc1 (stereo unspecified),inactive: -0.02%
16,COc1ccccc1OP(C)(=O)Nc1ccccc1 (stereo unspecified),inactive: 3.28%
17,CP(=S)(Nn1cnnc1)Oc1ccccc1 (stereo unspecified),inactive: 2.64%
18,O=[N+]([O-])c1ccc2c(c1)C=Nc1ccccc1O2,inactive: -3.98%
19,CC(C)(C)c1ccc(OP(C)(=O)Nc2ccc(SC(F)(F)F)cc2)cc1 (stereo unspecified),inactive: -0.18%
